{"source": "paper PMC4498684", "molecular_target": "VpSP37 (Vibrio parahaemolyticus secreted protease 37 kDa) (Vibrio parahaemolyticus (isolate B2))", "data": [{"substance": "Aprotinin (from UniProt P00974 36-93) (natural protein)", "values": [{"measurement": "TLA Inhibition (%): residual trypsin-like activity of VpSP37 on BOC-Gln-Ala-Arg-AMC 0.025 mM after pre-incubation with 1 uM aprotinin at 37°C for 15-40 min", "result": 98.2, "unit": "%"}]}]}
